# Results from patent US6787566B2, “Breakers of advanced glycation endproducts” (City of Hope, priority 1999, dated 2004).
# By UniProt entry, the sequences of proteins in these tests, tags left out. Residues count along the entry.
# UniProt P02454, 152-1207 limits assumed: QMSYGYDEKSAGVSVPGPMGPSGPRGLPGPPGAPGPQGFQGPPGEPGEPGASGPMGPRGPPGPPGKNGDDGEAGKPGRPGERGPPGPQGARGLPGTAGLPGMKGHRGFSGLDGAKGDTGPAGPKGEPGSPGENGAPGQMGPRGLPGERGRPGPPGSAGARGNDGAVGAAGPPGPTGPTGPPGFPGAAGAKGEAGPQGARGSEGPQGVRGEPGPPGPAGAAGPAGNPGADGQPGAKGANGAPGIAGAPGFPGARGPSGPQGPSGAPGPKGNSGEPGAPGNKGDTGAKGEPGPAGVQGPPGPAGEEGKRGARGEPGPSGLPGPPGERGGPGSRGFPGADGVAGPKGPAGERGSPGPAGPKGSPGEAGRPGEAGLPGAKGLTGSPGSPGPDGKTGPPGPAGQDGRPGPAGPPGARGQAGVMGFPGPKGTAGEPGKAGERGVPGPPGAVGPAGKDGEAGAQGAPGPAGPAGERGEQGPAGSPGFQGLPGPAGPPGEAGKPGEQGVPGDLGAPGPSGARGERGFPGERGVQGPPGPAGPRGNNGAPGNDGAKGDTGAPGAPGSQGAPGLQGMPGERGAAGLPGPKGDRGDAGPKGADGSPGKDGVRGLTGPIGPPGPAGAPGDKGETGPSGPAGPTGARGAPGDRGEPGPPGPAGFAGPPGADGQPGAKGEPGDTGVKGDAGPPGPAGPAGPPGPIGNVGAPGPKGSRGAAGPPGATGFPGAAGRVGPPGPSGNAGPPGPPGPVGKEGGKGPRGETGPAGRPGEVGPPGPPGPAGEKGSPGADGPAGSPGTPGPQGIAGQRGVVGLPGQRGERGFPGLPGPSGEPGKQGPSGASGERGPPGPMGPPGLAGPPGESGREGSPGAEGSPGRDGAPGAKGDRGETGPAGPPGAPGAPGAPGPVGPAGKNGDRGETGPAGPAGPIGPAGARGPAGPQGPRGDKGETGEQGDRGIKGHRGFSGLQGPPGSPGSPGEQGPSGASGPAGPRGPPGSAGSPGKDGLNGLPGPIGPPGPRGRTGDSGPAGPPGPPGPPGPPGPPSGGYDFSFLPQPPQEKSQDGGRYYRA
# UniProt P02466, 86-1125 limits assumed: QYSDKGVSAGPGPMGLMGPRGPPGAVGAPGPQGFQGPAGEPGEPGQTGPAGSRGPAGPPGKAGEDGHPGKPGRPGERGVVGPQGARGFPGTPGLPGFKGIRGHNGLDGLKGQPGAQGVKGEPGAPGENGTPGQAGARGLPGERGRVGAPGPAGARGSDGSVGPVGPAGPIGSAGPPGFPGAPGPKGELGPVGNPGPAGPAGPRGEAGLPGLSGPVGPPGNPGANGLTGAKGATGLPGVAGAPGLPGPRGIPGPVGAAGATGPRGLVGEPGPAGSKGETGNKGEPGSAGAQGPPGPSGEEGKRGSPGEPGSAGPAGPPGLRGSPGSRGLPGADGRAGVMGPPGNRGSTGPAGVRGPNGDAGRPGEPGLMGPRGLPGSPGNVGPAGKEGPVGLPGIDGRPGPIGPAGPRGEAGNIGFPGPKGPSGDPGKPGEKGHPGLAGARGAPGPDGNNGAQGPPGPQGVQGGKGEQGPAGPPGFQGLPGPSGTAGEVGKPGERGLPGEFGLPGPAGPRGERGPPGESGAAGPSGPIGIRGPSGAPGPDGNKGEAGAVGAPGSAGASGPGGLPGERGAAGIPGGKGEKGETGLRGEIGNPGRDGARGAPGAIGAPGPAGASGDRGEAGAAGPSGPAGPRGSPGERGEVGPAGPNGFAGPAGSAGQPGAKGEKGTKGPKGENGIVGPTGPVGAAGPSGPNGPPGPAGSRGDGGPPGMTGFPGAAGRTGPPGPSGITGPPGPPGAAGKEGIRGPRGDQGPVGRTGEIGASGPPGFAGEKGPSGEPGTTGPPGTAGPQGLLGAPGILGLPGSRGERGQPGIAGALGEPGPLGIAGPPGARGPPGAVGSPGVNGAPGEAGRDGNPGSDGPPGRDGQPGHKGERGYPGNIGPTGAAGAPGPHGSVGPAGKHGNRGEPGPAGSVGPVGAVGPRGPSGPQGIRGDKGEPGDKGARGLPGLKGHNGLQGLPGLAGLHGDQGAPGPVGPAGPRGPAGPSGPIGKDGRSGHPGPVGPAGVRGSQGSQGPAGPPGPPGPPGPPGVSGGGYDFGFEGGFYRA
# What was measured:
# [1] = target: T1, AGE cross-links in tail tendon collagen of diabetic rats (Rattus norvegicus, UniProt P02454+P02466); experiment: Papain digestibility assay, collagen-linked fluorescence; assay type: biochemical; settings: relative to untreated collagen of diabetic rats
# T1 construct: collagen was isolated from the tail tendon of diabetic and normal controls; from tissue; host or cells: tail tendon of streptozotocin-diabetic male Sprague-Dawley rats
# [2] = target: T1, AGE cross-links in tail tendon collagen of diabetic rats; experiment: Total pepsin digestion assay, collagen-linked fluorescence; assay type: biochemical; settings: relative to untreated collagen of diabetic rats
substance,measurement,setting,value
"1,4-benzene-bis[4-methyleneaminophenoxyisobutyric acid] [LR102]",Papain digestion Assay (% decrease in fluorescence),[1]; 0.1 mM,21.2%
same,Papain digestion Assay (% decrease in fluorescence),[1]; 1.0 mM,22.8%
same,Papain digestion Assay (% decrease in fluorescence),[1]; 10 mM,52.2%
same,Pepsin Digestion Assay (% decrease in fluorescence),[2]; 0.1 mM,12.9%
same,Pepsin Digestion Assay (% decrease in fluorescence),[2]; 1.0 mM,23.8%
same,Pepsin Digestion Assay (% decrease in fluorescence),[2]; 10 mM,37.3%
